Source: patent publication US10202356B2, “JAK2 and ALK2 inhibitors and methods for their use” (Tolero Pharmaceuticals, Inc., priority 2013, dated 2019)

System: hepcidin expression induced by BMP2 in HEPG2 cells
Test: BMP2-induced hepcidin expression in HEPG2 cells
Format: cell-based
Details: BMP2 at 100 ng/μL

B1: BMP2: induces hepcidin expression by binding to and activating ALK2 (protein, UniProt P12643 283-396, looked up)
Bone morphogenetic protein 2: QAKHKQRKRLKSSCKRHPLYVDFSDVGWNDWIVAPPGYHAFYCHGECPFPLADHLNSTNHAIVQTLVNSVNSKIPKACCVPTELSAISMLYLDENEKVVLKNYQDMVVEGCGCR
In the case of B1, the “hepcidin increase caused by BMP2 addition” value is reported as > 20 fold.
